## Apparent affinities of Ab-14 variants for a coronavirus HR2 peptide

Source: Li et al. 2023 (doi:10.1038/s41467-023-39022-2), MIT Lincoln Laboratory and A-Alpha Bio; data file from the FLAb repository.

Binding partner: SARS-CoV-2 spike HR2 peptide, sequence PDVDLGDISGINAS.

Parent: Ab-14, a human scFv built as VH, a (GGGGS)3 linker, VL. Only the CDRs of the heavy chain vary.
VH: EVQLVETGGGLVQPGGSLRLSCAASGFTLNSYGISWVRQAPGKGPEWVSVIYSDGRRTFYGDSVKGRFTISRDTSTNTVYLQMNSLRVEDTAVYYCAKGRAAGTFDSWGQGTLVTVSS
VL: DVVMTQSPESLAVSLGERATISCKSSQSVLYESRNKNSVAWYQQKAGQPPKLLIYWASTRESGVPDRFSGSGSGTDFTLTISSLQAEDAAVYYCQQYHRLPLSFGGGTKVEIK

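The starting antibody came from a phage panning campaign against this peptide. These sequences belong to a second round, designed from the earlier measurements on random variants of the parent. Several design methods are mixed in this list. Affinity was read by AlphaSeq, a pooled yeast mating assay with surface-displayed partners. The frequency of each diploid, read from paired DNA barcodes, reflects how well the two displayed proteins bind. A regression on co-assayed BCL2-family reference pairs converts the normalised counts of each replicate to an apparent Kd. The assay was run in six technical replicates.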

Each variant is given by its three heavy chain CDRs, as the data file delimits them; those of the parent are GFTLNSYGIS, VIYSDGRRTFYGDSVK, GRAAGTFDS. Values are log10 of the apparent Kd in nM; lower means stronger binding. Averages over replicates are reported, and they cover detected replicates only. An entry "no signal" has no value in the source: the pair was not observed among the diploids in any replicate. This suggests poor binding but is not conclusive. Three control strains display no target. For all heavy chain designs, 1% of the pairings with them gave a signal, with a median of 2.08 and one signal in twenty below 0.84, so weak values seen in few replicates may be background.

Variant GFHLNSYGSS | VIYSDGRRTFYGDSVK | GRATGTFDS showed no signal (0 of 6 replicates).
Variant GFDLNEYGIS | VIYADGKRTAYSDSVK | GNEAGTFDV showed -0.04 (6 of 6 replicates).
Variant GFTLNSYGIS | VIYSDGRRTFYLDSVK | GSAKGTFDS showed no signal (0 of 6 replicates).
Variant GFDLNSYGIS | VIYSDGRRTFYDDSVK | GAAAGTFDS showed 0.19 (5 of 6 replicates).
Variant GFTLMSYGIS | VIYSDGKRTFYGDSVK | GRAAGTFDS showed 2.38 (2 of 6 replicates).
Variant GFDLNEYGIS | VIYADGMRTAYSDKVK | GQNAGTFDV showed -0.26 (6 of 6 replicates).
Variant GFSLNQYGIS | VIYSDGRRTFYSDSVK | GRAAVTFDT showed no signal (0 of 6 replicates).
Variant GFDLNEYGIS | VIYADGMRTAYTDSVK | GTNAGTFDM showed -0.54 (6 of 6 replicates).
Variant GSKLDEYGIS | VIYADGVRTAYIEDVK | GQSGVSVVN showed no signal (0 of 6 replicates).
Variant DFNLNEYGIS | VIYADGVRASVRDKVK | GQISGTFDT showed no signal (0 of 6 replicates).
Variant GFDLDEYGIS | VIYADGRRTFYSDSVK | GNTAGTFDV showed -0.54 (6 of 6 replicates).
Variant GFDLNEYGIS | VIYADGQRTAYADSVK | GNQAGTFDM showed -0.30 (6 of 6 replicates).
Variant GFTLNSTGIS | VIYADGRRTIYGDSVK | GRAAGTNKS showed no signal (0 of 6 replicates).
Variant GFDLDEYGIS | VIYADGMRTAYSDSVK | GNTAGTFDQ showed -0.48 (6 of 6 replicates).
Variant GFDLNSYGIS | VIYSDGRRTFYDDRVK | GREAGTFDS showed -0.42 (6 of 6 replicates).
Variant GFELNEYGIS | VIYSDGRRTFYGDSVK | GRNAGTFDA showed -0.21 (6 of 6 replicates).
Variant GFDLNEYGIS | VIYADGKRTAYADSVK | GANAGTFDQ showed -1.03 (3 of 6 replicates).
Variant GFTLNQYGIS | VIYSDGRRTFYSPSVK | GRAQGTFDS showed no signal (0 of 6 replicates).
Variant GFDLNSYGIS | VIYSDGRRTFYDDSVK | GHAAGTFDS showed -0.17 (6 of 6 replicates).
Variant GFTLNEYWIS | VIYEDGRRTFYGDSVK | GSAAVTFDQ showed no signal (0 of 6 replicates).
Variant GFGLNDYGIS | VIYSDGRRTFYHDSVK | GRTAGTFDS showed 0.20 (6 of 6 replicates).
Variant GFSLNMYGIS | VIYSDGRRTFYGDSVK | GTAAGTFDS showed 0.41 (6 of 6 replicates).
Variant GFDLNSYGIS | VIYSDGMRTFYKDSVK | GRTAGTFDS showed -0.04 (6 of 6 replicates).
Variant GFDLNEYGIS | VIYADGVRTAYTDSVK | GENAGTFDI showed -0.17 (6 of 6 replicates).
Variant GFDLDEYGIS | VIYADGVRTAYADSVK | GNVAGTFDM showed 0.04 (6 of 6 replicates).
Variant GFTLNSYGIS | VIYSDGRRTFYGDSVK | GTVAGEFDS showed 2.81 (1 of 6 replicates).
Variant GFDLNEYGIS | VIYADGMRKAYADDVK | GEVAGTFDL showed 1.04 (2 of 6 replicates).
Variant GFDLNEYGIS | VIYSDGRRTFYGDSVK | GRTAGTFDS showed -0.59 (6 of 6 replicates).
Variant GFQLNSYGIS | VIYADGRRTFYGDQVK | GRAAGTFKS showed no signal (0 of 6 replicates).
Variant GFTLNEYGIS | VIYSDGRRTFYGDSVK | LRAAVTFDQ showed no signal (0 of 6 replicates).
Variant GFDLNEYGIS | VIYADGMRKAYADNVK | GNVAGTFDL showed -0.81 (6 of 6 replicates).
Variant GFDLNEYGIS | VIYSDGRRTFYGDAVK | GRTAGTFDS showed -0.46 (6 of 6 replicates).
Variant GFELGSYGIS | VIYSDGRRTFYGDSVK | GRAAGTFKS showed 3.36 (1 of 6 replicates).
Variant GFTLNDYGIS | VIYSDGRRTFYADSVK | GRAAGDFDS showed 0.96 (6 of 6 replicates).
Variant GQSLDEYGIS | VIYADGSRTAYAKSVK | GLGGFVNIM showed no signal (0 of 6 replicates).
Variant GFTLNSYGIS | VIYSDGERTFYGDEVK | GRAAGTFDV showed 2.01 (4 of 6 replicates).
Variant GFDLNEYGIS | VIYADGMRTFYADSVK | GNIAGTFDS showed 0.04 (6 of 6 replicates).

A selection of 4 entries from above:

{"CDR-H1": "GFELNEYGIS", "CDR-H2": "VIYSDGRRTFYGDSVK", "CDR-H3": "GRNAGTFDA", "mean log10 Kd (nM)": "-0.21", "detected": "6 of 6"}
{"CDR-H1": "GFDLNEYGIS", "CDR-H2": "VIYADGMRTAYSDKVK", "CDR-H3": "GQNAGTFDV", "mean log10 Kd (nM)": "-0.26", "detected": "6 of 6"}
{"CDR-H1": "GFHLNSYGSS", "CDR-H2": "VIYSDGRRTFYGDSVK", "CDR-H3": "GRATGTFDS", "mean log10 Kd (nM)": "no signal", "detected": "0 of 6"}
{"CDR-H1": "GQSLDEYGIS", "CDR-H2": "VIYADGSRTAYAKSVK", "CDR-H3": "GLGGFVNIM", "mean log10 Kd (nM)": "no signal", "detected": "0 of 6"}

The range of this assay differs from that of the first round, and the authors advise against merging the two. The parent sequence was in this pool as ten entries: three were never detected, three once, and four in most replicates, with averages from 0.34 to 2.37. The authors averaged sequences with at least three values out of six and counted those with two or fewer as poor binders.